The entries are a selection whose mix differs from that of the whole data set. Some results for these compounds are left out of this collection, so the calls shown say nothing about other tests. Calls of active or inactive are those of the source.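 Rule for the calls: active = Z score or B-score, a plate-position-corrected score, falls beyond the plate's 99.7% confidence bounds, in either direction; inactive = both scores lie inside the 99.7% bounds.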
Biological target: Sodium-dependent dopamine transporter (Homo sapiens) (UniProt Q01959)
Assay: changed hDAT dopamine uptake under cocaine IC80, either direction, primary screen, cocaine antagonist project, cell-based, LLC-PK1 hDAT, [14C]-dopamine uptake, MLSMR (AID 449768);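 note: scored against the spread of the other compound wells on the same plate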
Details: LLC-PK1 hDAT cells, [14C]-dopamine uptake with cocaine IC80; at 10 µM; actives deviate in either direction

The chains behind the UniProt entries cited, without tags or fusion partners.
UniProt Q01959, whole entry: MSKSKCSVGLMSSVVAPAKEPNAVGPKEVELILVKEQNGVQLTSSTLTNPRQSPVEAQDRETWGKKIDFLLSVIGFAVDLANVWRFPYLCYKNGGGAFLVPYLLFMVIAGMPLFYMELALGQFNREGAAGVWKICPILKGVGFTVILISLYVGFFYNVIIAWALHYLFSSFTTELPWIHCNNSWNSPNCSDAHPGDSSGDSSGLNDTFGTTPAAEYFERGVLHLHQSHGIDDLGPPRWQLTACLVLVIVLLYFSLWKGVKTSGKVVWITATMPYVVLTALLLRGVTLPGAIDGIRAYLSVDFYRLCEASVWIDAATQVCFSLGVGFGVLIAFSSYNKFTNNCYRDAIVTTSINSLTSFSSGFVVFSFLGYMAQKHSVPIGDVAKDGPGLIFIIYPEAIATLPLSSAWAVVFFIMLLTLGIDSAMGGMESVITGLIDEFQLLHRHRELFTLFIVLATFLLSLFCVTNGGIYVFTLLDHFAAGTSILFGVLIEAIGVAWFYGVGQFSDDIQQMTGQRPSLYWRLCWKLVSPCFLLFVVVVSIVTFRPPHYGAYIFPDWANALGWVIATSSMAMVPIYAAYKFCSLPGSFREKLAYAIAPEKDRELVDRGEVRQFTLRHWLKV

For `CC(C)N1C(=O)CC2(CCN(CCOC(=O)C(O)(c3ccccc3)c3ccccc3)CC2)C1=O`, which B-score is on record?
The B-score was inactive: -0.529.

`O=C(OC1CN2CCC1CC2)C(CO)(c1ccccc1)c1ccccc1` (stereo not drawn) was tested. Which B-score did it give?
The B-score was inactive: -0.262.

Which B-score does the source give for `CN(C)c1cccc(C(=O)NCC2(N(C)C)CCCCC2)c1` here?
The B-score was inactive: -0.348.

Source: PubChem BioAssay AID449768 (Vanderbilt High Throughput Screening Facility, 2010)
